The source of these data is patent US9221795B2, “Phosphatidylinositol 3-kinase inhibitors” (Gilead Sciences, Inc., priority 2013, dated 2015).

Protein sequences, listed by entry. Tags and fused reporters are not part of them. Lines headed by an entry give the natural chain unless they say otherwise; changes in a name come on top.
UniProt O00329, whole entry: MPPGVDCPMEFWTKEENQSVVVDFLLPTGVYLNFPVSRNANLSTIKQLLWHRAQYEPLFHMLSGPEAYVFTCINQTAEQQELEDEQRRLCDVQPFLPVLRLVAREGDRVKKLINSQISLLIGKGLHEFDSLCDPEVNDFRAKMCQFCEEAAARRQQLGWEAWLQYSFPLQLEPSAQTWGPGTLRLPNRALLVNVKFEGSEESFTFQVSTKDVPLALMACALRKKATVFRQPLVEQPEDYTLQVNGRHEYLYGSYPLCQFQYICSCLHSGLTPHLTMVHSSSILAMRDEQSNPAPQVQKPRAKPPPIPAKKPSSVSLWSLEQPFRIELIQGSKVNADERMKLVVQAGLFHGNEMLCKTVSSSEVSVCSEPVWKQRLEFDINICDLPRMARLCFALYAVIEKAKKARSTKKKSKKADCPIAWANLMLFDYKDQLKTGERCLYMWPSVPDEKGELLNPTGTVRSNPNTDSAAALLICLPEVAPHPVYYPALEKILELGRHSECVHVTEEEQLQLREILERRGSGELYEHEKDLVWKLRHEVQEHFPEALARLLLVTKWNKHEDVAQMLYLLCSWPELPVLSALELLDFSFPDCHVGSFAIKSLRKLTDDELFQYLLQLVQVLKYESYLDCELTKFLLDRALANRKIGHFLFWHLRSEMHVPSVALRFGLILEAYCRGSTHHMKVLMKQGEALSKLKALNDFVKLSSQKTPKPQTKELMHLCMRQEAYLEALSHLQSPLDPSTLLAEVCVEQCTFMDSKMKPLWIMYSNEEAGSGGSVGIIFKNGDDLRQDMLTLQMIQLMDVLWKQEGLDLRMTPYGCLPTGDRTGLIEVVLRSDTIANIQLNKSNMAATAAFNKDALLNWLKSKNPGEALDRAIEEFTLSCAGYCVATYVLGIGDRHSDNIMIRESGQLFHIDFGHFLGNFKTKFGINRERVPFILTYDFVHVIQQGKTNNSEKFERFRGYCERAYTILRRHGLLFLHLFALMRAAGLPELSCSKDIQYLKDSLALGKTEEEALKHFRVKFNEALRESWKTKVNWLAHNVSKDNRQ
UniProt P27986, whole entry partner: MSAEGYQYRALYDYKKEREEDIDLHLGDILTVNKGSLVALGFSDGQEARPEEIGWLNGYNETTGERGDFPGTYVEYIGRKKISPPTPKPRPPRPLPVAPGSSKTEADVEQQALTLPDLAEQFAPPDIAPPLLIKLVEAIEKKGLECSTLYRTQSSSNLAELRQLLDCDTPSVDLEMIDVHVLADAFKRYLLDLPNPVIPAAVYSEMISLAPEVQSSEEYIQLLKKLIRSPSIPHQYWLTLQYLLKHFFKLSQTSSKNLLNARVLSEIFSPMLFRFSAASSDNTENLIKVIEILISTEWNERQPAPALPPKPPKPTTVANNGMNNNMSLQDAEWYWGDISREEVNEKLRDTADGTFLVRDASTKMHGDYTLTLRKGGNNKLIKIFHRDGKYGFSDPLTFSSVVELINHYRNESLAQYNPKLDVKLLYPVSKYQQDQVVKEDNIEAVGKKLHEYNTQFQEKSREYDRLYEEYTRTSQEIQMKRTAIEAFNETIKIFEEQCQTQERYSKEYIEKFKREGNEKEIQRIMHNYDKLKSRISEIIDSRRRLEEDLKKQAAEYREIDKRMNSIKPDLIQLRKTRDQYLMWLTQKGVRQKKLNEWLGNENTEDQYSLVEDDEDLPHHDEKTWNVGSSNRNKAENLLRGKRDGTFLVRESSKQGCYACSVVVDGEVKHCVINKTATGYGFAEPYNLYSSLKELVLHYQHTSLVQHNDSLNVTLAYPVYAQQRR

For this assay, the target named is PI3Kδ (Homo sapiens (Human), UniProt O00329). Description: Enzymatic activity of PI3K isoforms, TR-FRET assay (PI3Kδ). To be noted: read-out: PI3Kδ IC50, 2× Km ATP, geometric mean if more than one value.

One may read the IC50 as the concentration at which inhibition is half-maximal.

`CC[C@H](Nc1nc(N)nc(N)c1C#N)c1nc2c(F)ccc(Cl)c2c(=O)n1-c1cncc(F)c1`: the half-maximal inhibitory concentration (IC50) was determined as 4 nM.
